In ChEMBL document CHEMBL1156760, “Synthesis and biological evaluation of new nanomolar competitive inhibitors of Helicobacter pylori type II dehydroquinase. Structural details of the role of the aromatic moieties with essential residues” (J Med Chem, 2010):

Target: T1, 3-dehydroquinate dehydratase (Helicobacter pylori (strain ATCC 700392 / 26695) (Campylobacterpylori), UniProt Q48255)
T1 sequence (Q48255 whole entry): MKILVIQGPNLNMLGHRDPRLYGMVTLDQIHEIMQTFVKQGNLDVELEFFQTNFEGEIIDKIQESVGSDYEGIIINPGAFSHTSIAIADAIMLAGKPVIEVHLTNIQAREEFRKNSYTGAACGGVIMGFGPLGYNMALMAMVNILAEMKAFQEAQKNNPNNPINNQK
Assay: Inhibition of Helicobacter pylori DHQ2 by UV spectroscopy

Work on `Cc1ccc2sc(COC3=C[C@@](O)(C(=O)O)C[C@@H](O)[C@@H]3O)cc2c1` yielded a Ki of 130 nM.
